Ab-95 light chain CDR variants: yeast mating affinities

The measurements come from Engelhart et al. 2022 (doi:10.1038/s41597-022-01779-4) through the FLAb antibody collection.

Target peptide (SARS-CoV-2 spike, HR2 region): PDVDLGDISGINAS

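In library AAYL52, one, two or three CDR residues were substituted; doubles and triples were drawn at random. The assay is AlphaSeq: two haploid yeast populations carry antibody and antigen on their surface. Pairs that bind mate more often; barcode pairs of the diploids are counted by sequencing. Read counts were normalised to the haploid input and turned into Kd by a linear fit to BCL2-family pairs of known affinity, for each replicate. Mating was done three times.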

The variants keep the heavy chain, the linker and the frameworks of Ab-95 (scFv order VH, a 15-residue (Gly4Ser)3 linker, VL).
VH: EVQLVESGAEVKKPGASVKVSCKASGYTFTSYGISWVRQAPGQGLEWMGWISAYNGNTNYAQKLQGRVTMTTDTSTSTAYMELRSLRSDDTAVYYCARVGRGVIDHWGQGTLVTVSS
VL: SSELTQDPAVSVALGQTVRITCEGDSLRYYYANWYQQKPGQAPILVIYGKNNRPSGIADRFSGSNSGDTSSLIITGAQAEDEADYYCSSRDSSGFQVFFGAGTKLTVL

The parent's light chain CDRs are EGDSLRYYYAN, GKNNRPS, SSRDSSGFQVF; each variant's own CDRs replace them letter for letter.
Values are log10 of the apparent Kd in nM; lower means stronger binding.
The mean shown is taken over the replicates in which the pair was detected.
"ND" means that the variant was in the library but no mating with the target was seen in that replicate; the authors take this as a sign of poor binding, and no number exists.
Nonspecific signal, from three strains lacking the peptide, appeared in 28% of pairings of library AAYL52, centred on 3.91 (5% of these signals below 2.90); values are not corrected for it. The control count says in how many pairings with the empty strains this scFv gave a signal, with their mean in brackets.
For reference, the parent read 2.31 as the reference entry and 2.25 as a member of this library.

CDR-L1 | CDR-L2 | CDR-L3 | log10 Kd, replicates | mean log10 Kd (nM) | signal with controls
EGDSLRYYYAE | TKANRPS | SSRDSSGFQVF | 3.51 ND ND | 3.51 | 5 of 9 (3.39)
EGDSLRYYYAN | GKINRPS | SSRHSNGFQVF | ND ND ND | ND | 0 of 9
EMDSARYAYAN | GKNNRPS | SSRDSSGFQVF | 1.69 1.64 1.36 | 1.56 | 2 of 9 (3.85)
EGDSLIYYYAN | GKNIRPS | SSRDSSGCQVF | 4.79 4.88 2.96 | 4.21 | 3 of 9 (3.38)
KFDSLRYYYAN | GKNNRPS | SSRDSSGFQVY | 2.52 2.59 2.20 | 2.44 | 3 of 9 (4.39)
EGDSPRYYYAN | GMNNRPS | SSRPSSGFQVF | 3.67 5.27 3.67 | 4.20 | 4 of 9 (3.93)
EGDSLRYYYAN | IKLNGPS | SSRDSSGFQVF | 5.39 ND ND | 5.39 | 3 of 9 (3.43)
EGDSLRYYYAN | GKNNRSS | SSRDNSGLQVF | 2.54 2.44 1.86 | 2.28 | 4 of 9 (3.32)
EGDSLRYYYAN | GKNNRPS | SSYDSSGRQVS | 3.88 5.12 ND | 4.50 | 1 of 9 (3.88)
EGDSLRYYYAN | GKVWRPS | SSRDNSGFQVF | ND ND ND | ND | 1 of 9 (3.97)
EGDSLSYYYAN | HKNNVPS | SSRDSSGFQVF | 4.56 5.70 4.03 | 4.76 | 3 of 9 (4.18)
EGDSLRYYAAN | GKLNRPS | SSRDSSGGQVF | 3.09 ND ND | 3.09 | 1 of 9 (2.62)
EGDSLRYCYAN | GKNNRES | SSRCSSGFQVF | 4.47 5.21 ND | 4.84 | 1 of 9 (5.24)
EGDSLRYYMAN | GKNNRPS | SSRESSGFQSF | 2.68 2.33 2.74 | 2.58 | 2 of 9 (4.07)
EGRSLRMYYAN | EKNNRPS | SSRDSSGFQVF | 4.80 4.53 ND | 4.67 | 2 of 9 (4.04)
EGDRLRYYYAN | GKNNMPS | TSRDSSGFQVF | ND ND ND | ND | 1 of 9 (4.31)
EGMSVRYYYAN | GKNNRPS | SSRDSSGFSVF | ND ND ND | ND | 0 of 9
EGDSSRYYYAN | GKNWRPS | SSRDSSGFNVF | 2.78 3.52 2.46 | 2.92 | 5 of 9 (4.37)
EGDSLRYYYAT | GQNNRPS | SSRDWSGFQVF | ND ND 3.86 | 3.86 | 2 of 9 (3.11)
EGDSLRYYYAN | GKNNCPS | PSRDSSGVQVF | 4.12 4.92 4.54 | 4.53 | 6 of 9 (4.14)
EDDSLRYAYAN | GPNNRPS | SSRDSSGFQVF | 3.23 2.92 2.79 | 2.98 | 1 of 9 (4.17)
EGDSLRYYYAG | TKNNRPS | FSRDSSGFQVF | ND ND ND | ND | 2 of 9 (4.03)
EIDSLRYYYAD | GKNNRPS | SSRDSSGFQPF | 4.87 ND 4.25 | 4.56 | 1 of 9 (4.22)
EGDSLRMYYAN | GKNNRPS | SSRDWSGTQVF | 3.19 3.03 3.65 | 3.29 | 6 of 9 (4.19)
EGMSLRYYYAN | GKNNRPS | SSRDDSAFQVF | ND ND ND | ND | 1 of 9 (3.48)
EGDSVRYDYAN | GKNNRPS | SSTDSSGFQVF | ND 4.24 ND | 4.24 | 0 of 9
KGDSLRYYYAN | GEKNRPS | SSRDSSGFQVF | 1.58 1.59 1.54 | 1.57 | 1 of 9 (3.65)
EGDSLRAYYAN | GKNNRPS | SSRLSSGFQVY | 2.74 2.33 2.81 | 2.63 | 3 of 9 (3.82)
EGDWLRYYYAN | GKNNRPS | TSRDSFGFQVF | ND ND ND | ND | 1 of 9 (3.39)
EGDFLRYNYAN | GKNNRPS | SSRDSSGFAVF | 1.26 1.08 0.62 | 0.99 | 3 of 9 (4.65)
EGDSLRYYYAF | GKNNDPQ | SSRDSSGFQVF | 3.93 ND 4.63 | 4.28 | 7 of 9 (4.57)
ERDSLRYYYAN | GKNNRPS | SSRDSSDFQVR | 3.39 ND ND | 3.39 | 4 of 9 (3.74)
EGDSLRYYYAN | GQTNRPS | SSRDGSGFQVF | 3.50 4.06 ND | 3.78 | 2 of 9 (3.57)
EGDSLRYSYAN | GKINCPS | SSRDSSGFQVF | 3.47 4.85 ND | 4.16 | 5 of 9 (4.08)
EGDSLRYYPAN | GKKNRPK | SSRDSSGFQVF | 2.70 3.36 2.88 | 2.98 | 4 of 9 (3.74)
EGDSLWYYYNN | GKNNRPS | SSRKSSGFQVF | 4.03 4.66 ND | 4.34 | 2 of 9 (4.06)
ETDSLRHYYAN | GKNNRPS | SSRDSSGFQVF | 3.05 3.38 2.05 | 2.83 | 2 of 9 (4.44)
EGDSLDYYYAN | IKNNRCS | SSRDSSGFQVF | ND ND 4.13 | 4.13 | 1 of 9 (2.85)

A selection of 6 entries from above:

CDR-L1 | CDR-L2 | CDR-L3 | log10 Kd, replicates | mean log10 Kd (nM) | signal with controls
EGDSVRYDYAN | GKNNRPS | SSTDSSGFQVF | ND 4.24 ND | 4.24 | 0 of 9
EGDSLRYYYAF | GKNNDPQ | SSRDSSGFQVF | 3.93 ND 4.63 | 4.28 | 7 of 9 (4.57)
EGDSLSYYYAN | HKNNVPS | SSRDSSGFQVF | 4.56 5.70 4.03 | 4.76 | 3 of 9 (4.18)
ETDSLRHYYAN | GKNNRPS | SSRDSSGFQVF | 3.05 3.38 2.05 | 2.83 | 2 of 9 (4.44)
EGDSLWYYYNN | GKNNRPS | SSRKSSGFQVF | 4.03 4.66 ND | 4.34 | 2 of 9 (4.06)
ERDSLRYYYAN | GKNNRPS | SSRDSSDFQVR | 3.39 ND ND | 3.39 | 4 of 9 (3.74)